Patent US20260284003A1, “COMPOSITIONS AND METHOD FOR MANAGEMENT OF PAIN AND ALLERGY” (priority 2023, published 2026)

How the values were obtained:
Type in all cases: in vivo, C57BL/6 mice
TRPV1 = TRPV1 expression in spinal tissue lysate (Western blotting); conditions: normalized to GAPDH, cisplatin = 1, control 0.3, BCP 10 mg, PEA 5 mg, BPE 10 mg, BPB 15 mg, Ibuprofen 30 mg, oral 21 days
Method: (§1) In the current study, TRPV1 and COX-2 expression was assessed in the spinal tissue lysate of the animals, using Western blotting. Briefly, proteins from the spinal tissue were separated in a 10% SDS-PAGE and transferred to PVDF membrane. The TRPV1 and COX-2 expressions were probed using specific monoclonal antibodies (ABclonal, Dusseldorf, Germany). GAPDH was used as housekeeping gene control. The expression of TRPV1 and COX-2 were normalized to that of GAPDH, and fold change was calculated w.r.t cisplatin group.

COX-2 = COX-2 expression in spinal tissue lysate (Western blotting); conditions: normalized to GAPDH, cisplatin = 1, control 0.7, BCP 10 mg, PEA 5 mg, BPE 10 mg, BPB 15 mg, Ibuprofen 30 mg, oral 21 days
Method: as §1

[1] = system: Cisplatin induced peripheral neuropathy animal models; assay: Tail-flick test, cisplatin induced peripheral neuropathy; conditions: tail withdrawal latency; BCP 10 mg, PEA 5 mg, BPE 10 mg, BPB 15 mg, Ibuprofen 30 mg
Method: This is a test of acute nociception in which a high-intensity thermal stimulus is directed to the tail of a mouse or a rat. The time from onset of stimulation to a rapid flick/withdrawal of the tail from heat source is recorded. Thermal (radiant heat) sensation of animal tail part was assessed by observation of tail flick response as per D'Aemour and Smith method with minor modifications (Hargreaves et al. A new and sensitive method for measuring thermal nociception in cutaneous hyperalgesia. Pain 32 (1988) 77-88). The one-centimeter distance from the tail terminal region was located on the slit of the plantar device. Thermal sensitivity of mice tail was recorded as tail withdrawal latency. Brisk withdrawal of tail from the plantar device was considered as a progression of neuropathic pain. Cut-off stimuli, i.e., 15 s was maintained to avoid potential tissue damage. Mice were tested after 24 h of treatment injections for the drug-response evaluation.

[2] = system: Cisplatin induced peripheral neuropathy animal models; assay: Hot plate test, cisplatin induced peripheral neuropathy; conditions: reaction latency, 52° C.; BCP 10 mg, PEA 5 mg, BPE 10 mg, BPB 15 mg, Ibuprofen 30 mg
Method: Animals are placed on the hot plate one at a time. Latency to respond to the heat stimulus is measured by the amount of time it takes for the animal to lick one of its paws. Animals were placed on a hot-plate apparatus. In order to measure thermal pain, the temperature of the hot plate surface was set to 52° C. The reaction latency as well as the time between when the animals were placed and the onset of paw-licking or jumping behaviors were measured in seconds(s). To minimize tissue damage, a cut-off time of 40 s was adopted (Moureq et al. Alleviation of cisplatin-induced neuropathic pain, neuronal apoptosis, and systemic inflammation in mice by rapamycin., Frontiers in Aging Neuroscience., 14, 2022).

CC(C)Cc1ccc(C(C)C(=O)O)cc1 (stereo not shown) [Ibuprofen, reference compound]
TRPV1 expression (fold change w.r.t cisplatin group) (TRPV1): 1.8
Cox 2 expression (fold change w.r.t cisplatin group) (COX-2): 0.6
Tail Flick test Mean Diff., Cisplatin vs. treatment (Tukey's multiple comparisons test) [1]: −6.25
Hot plate test Mean Diff., Cisplatin vs. treatment (Tukey's multiple comparisons test) [2]: −18.79
